In paper PMC8403742, “A single point mutation causes one-way alteration of pheromone receptor function in two Heliothis species” (iScience, 2021):

Test system: chimeric OR6s (VSV and SVS)
Assay: Chimeric OR6s VSV and SVS co-expressed with HvirOrco in Xenopus oocytes
Details: 10^-4 M, chimeras VSV and SVS

Structure (SMILES): CCCC/C=C\CCCCCCCC=O [Z9-14:Ald, (Z)-9-tetradecenal]
- response of chimeric OR6s compared with original sequences (VVV and SSS): did not change significantly
